Chains of the proteins cited; added tags and fusions are not shown.
UniProt Q96D31, whole entry: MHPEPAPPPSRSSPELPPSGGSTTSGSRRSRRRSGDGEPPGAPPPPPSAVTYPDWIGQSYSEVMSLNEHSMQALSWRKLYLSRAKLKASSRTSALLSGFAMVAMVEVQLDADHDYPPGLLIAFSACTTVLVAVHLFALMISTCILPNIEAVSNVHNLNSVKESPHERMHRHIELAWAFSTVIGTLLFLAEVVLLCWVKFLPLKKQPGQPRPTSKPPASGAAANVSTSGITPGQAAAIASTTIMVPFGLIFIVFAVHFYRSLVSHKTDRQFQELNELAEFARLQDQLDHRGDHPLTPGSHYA

In ChEMBL document CHEMBL3868625, “Evaluation of known and novel inhibitors of Orai1-mediated store operated Ca2+ entry in MDA-MB-231 breast cancer cells using a Fluorescence Imaging Plate Reader assay” (Bioorg Med Chem, 2017):

Target: Calcium release-activated calcium channel protein 1 (Homo sapiens, UniProt Q96D31)
Test: Inhibition of Orai1-mediated store operated Ca2+ entry in human MDA-MB-231 cells assessed as reduction in BAPTA-induced Ca2+ depletion-stimulated SOCE activity preincubated for 15 mins followed by BAPTA addition in presence of extracellular Ca2+ by PBX-based FLIPR assay
Format: cell-based
How it was run: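 MDA-MB-231 cells seeded at 2 × 10^3/well and assayed 3 days later on FLIPR. Loaded 1 h at 37°C with PBX Calcium dye (2 μM), 5% Signal Enhancer and 500 μM probenecid in PSS pH 7.3. Compound applied 15 min at room temperature. BAPTA (500 μM) then chelates extracellular Ca2+, and CPA empties stores. Peak 2 (SOCE) height is given as % inhibition against DMSO control; <10% at 100 μM counts as not active.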

For `Cc1nnsc1C(=O)Nc1ccc(-n2nc(C(F)(F)F)cc2C(F)(F)F)cc1`, the IC50 was 2.8 µM.
